Assay results published in paper PMC6321321 (Pharmaceutics, 2018).
Like-named read-outs stand apart in the source and are kept apart here.

How the values were obtained:
[1] = In situ closed ileum loop administration study: insulin co-administered with additives; settings: in situ rat closed ileal loop, insulin 50 IU/kg alone, mean ± SEM, N=8
Procedure: (§1) Additional i.p. injections of sodium pentobarbital (12.5 mg/kg) were administered every 1 h to maintain anesthesia. The ileum was exposed following a small midline incision made carefully in the abdomen. Its proximal to ileocecal junction segments (length = 10 cm) were cannulated at both ends using polypropylene tubing and ligated securely to prevent fluid loss. To wash out the intestinal contents, PBS warmed to 37 °C was circulated through the cannula at 5.0 mL/min for 4 min using an infusion pump. The cannulation tubing was removed, the segments were closed tightly and returned carefully to their original location inside the peritoneal cavity. Rats were kept on the board at 37 °C for an additional 30 min to calm biological reactions such as elevated blood glucose levels resulting from the stress imposed by surgery. […] To examine dose dependency, the final concentrations of tryptophan were adjusted to 4, 8, 16 and 32 mM. In the comparison study with three hydrophobic amino acids or metabolite of L-tryptophan, the final concentrations of L-isoleucine, L-proline, L-phenylalanine and serotonin were 32 mM. In the study examining the synergistic effect of L-arginine and L-tryptophan, the final concentration of L-arginine was fixed at 40 mM.
(§2) During the experiment, 0.25 mL blood aliquots were taken from the jugular vein at 0, 5, 10, 15, 30, 60, 120 and 180 min after dosing. The tuberculin syringes (1 mL, Terumo Corp., Tokyo, Japan) were heparinized by the standard procedure of coating the syringe wall with aspirated heparin and then expelling all the heparin. […] The plasma concentrations of FDs were measured with a microplate fluorimeter (Synergy HT, BioTek Instruments Inc., Winooski, VT, USA) at excitation and emission wavelengths of 485 and 528 nm, respectively.

[2] = In situ closed ileum loop study: insulin after pretreatment of the loop with enhancers; settings: rat ileal loop pretreated 30 min with PBS, washed, then insulin 50 IU/kg, mean ± SEM, N=4
Procedure: as §1, §2

[3] = rat
[4] = relative to s.c. insulin 1 IU/kg

Insulin
AUC (plasma insulin) ([1]; AUC 0-3 h, trapezoids): 8.5 ± 2.5 μU·h/mL
Tmax (plasma insulin) [1]: 9.4 ± 1.1 min
Cmax (plasma insulin) ([1]; plasma insulin by ELISA): 10.6 ± 2.4 μU/mL
BA (relative bioavailability of insulin) [1, 4]: 0.1 ± 0.0%
AUC (plasma insulin) ([2]; AUC 0-3 h): 2.0 ± 0.2 μU·h/mL
Cmax (plasma insulin) ([2]; ELISA): 1.7 ± 0.3 μU/mL
Tmax (plasma insulin) [2]: 7.5 ± 2.5 min
BA (relative bioavailability of insulin) [2, 4]: 0.0 ± 0.0%
AUC (plasma insulin) ([3]; insulin s.c. 1 IU/kg in PBS, AUC 0-3 h, mean ± SEM, N=3): 191.2 ± 5.2 μU·h/mL
Cmax (plasma insulin) ([3]; insulin s.c. 1 IU/kg in PBS, ELISA, mean ± SEM, N=3): 133.8 ± 3.4 μU/mL
Tmax (plasma insulin) ([3]; insulin s.c. 1 IU/kg in PBS, mean ± SEM, N=3): 25.0 ± 5.0 min
BA (relative bioavailability of insulin) ([3]; insulin s.c. 1 IU/kg, reference route of the BA calculation): 100%
